US20260158152A1, “SPLICING MODULATOR ANTIBODY-DRUG CONJUGATES AND METHODS OF USE” (EISAI R&D MANAGEMENT CO., LTD., priority 2018, published 2026)

What was measured:
[1] = system: TAOK1 (neojunction transcript); assay: In vivo PD RT-qPCR in NCI-N87 tumors, TAOK1; set-up: species or system CB17-SCID mice; conditions: 10 mg/kg IV single dose, NCI-N87 xenograft, versus vehicle
Description: (§1) Single cell suspension of 5 million cells per 0.1 mL (50% ATCC-modification-RPMI-1640-medium, Cat. No. A10491-01 (Thermo-Fisher Scientific); and 50% Corning Matrigel, Cat No. 356254 (VWR Scientific)) was injected subcutaneously on the right lateral flank with a syringe with a 25 Ga needle. Mice were randomized on day 0 at a mean tumor volume of 180-183 mm^3, n=8 per group for efficacy and n=4 per group for pharmacodynamics (PD). On day 1, test articles were administered (10 mg/kg) at a volume of 5 mL/kg intravenously every 7 days for 2 cycles for efficacy; a single course of treatment was used for PD assessment. Animals in the PD cohorts were euthanized at 24, 48, 72, and/or 96 hours post-dosing of a single dose, depending on the test article. Tumor volume and body weight were measured one or two times weekly until the termination (day 61) of the study. Tumor volume was calculated using the formula length×width^2/2. […]
(§2) Quantitative PCR from cDNA was performed using TaqMan Gene Expression Master Mix (ThermoFisher Scientific) with transcript probes targeting FBXW5 or TAOK1 junctions duplexed with RPLP0 RNA VIC-PL (ThermoFisher Scientific) and quantified using the ΔΔCt method.
(§3) RT-qPCR of FBXW5 (mature mRNA transcript) and TAOK1 (neojunction transcript) were monitored. […]

[2] = system: FBXW5 (mature mRNA transcript); assay: In vivo PD RT-qPCR in NCI-N87 tumors, FBXW5; set-up: species or system CB17-SCID mice; conditions: 10 mg/kg IV single dose, NCI-N87 xenograft, versus vehicle
Description: as §1, §2, §3

With “TDM1: "treated intravenously with vehicle or 10 mg/kg trastuzumab, TDM1, or an exemplary HER2-ADC" [reference compound]” the “change in TAOK1 neojunction transcript in tumors” value [1] was “Neither” and the “change in FBXW5 mature mRNA transcript in tumors” value [2] was “Neither”.
